In PubChem BioAssay AID925 (National Center for Advancing Translational Sciences (NCATS), 2007) one finds activation data, which are given here for two compounds.

This is a selection; strong and weak results do not stand in their true shares. Activity calls are given as the source filed them. Calls come from the whole dose curve; as a rule, active = well fitted activation curve with a large enough effect; inconclusive = small, poorly fitted or top-dose-only effect; inactive = flat fitted curve, though single readings scatter.

A short description of the assay: qHTS Assay for Modulators of Hemoglobin Beta Chain Splicing. Note: 0% is about no effect. The conditions noted are these: HBB splicing reporter cell assay, EGFP reporter with mutant IVS2-654 intron, normalised to 500 nM splice-correcting PNA; at 46.1 µM (top of the series). The text has this:
NIH Chemical Genomics Center [NCGC]
NIH Molecular Libraries Screening Centers Network [MLSCN]
PI Name: Dr. Ryszard Kole
Modulation of Alternative Splicing as Therapy
Abnormal splicing is associated with a number of diseases, including cancer and genetic diseases such as cystic fibrosis, muscular dystrophy and beta-thalassemia. Alteration of disease associated splicing patterns provides a promising target for treatment. […] Mutations in the second intron of the beta-globin gene at positions are clinically relevant and cause mis-splicing which results in an out of frame gene product.
EGFP-654 and 705 HeLa Cells as screen system.
HeLa cell lines were stably transfected with a construct in which the EGFP (enhanced green fluorescent protein) cDNA was interrupted by the second intron of the beta-globin gene (IVS2-654). The ISV2 intron contains mutations which cause mis-splicing of EGFP and premature termination of EGFP which results in a nonfluorescent protein product. […] Expression of the transgene was driven by the CMV promoter. […]
High Throughput Screening. […] Plates were read in the Acumen Explorer (TTP Labtech) using 488 nm laser excitation and 500-520 nm emission PMT filter in a 1 x […] capture mode. Fluorescnet Fluorescent objects ranging in size from […] were measured and the total peak GFP intensity for each well was used for data analysis. […]
Background: In qHTS, concentration-response curves come from the screen itself.
As to `CN(CCCl)CCCl`, the activation is inactive: -0.112%.

In the case of `O=[N+]([O-])C(Cl)(Cl)Cl`, the activation is inactive: -0.127%.
